In the supplement of paper PMC9942566:
± gives the standard deviation of the averaged measurements. The list shows a part of the results, in another mix than the full data.

System: Serratia marcescens K904 PosmB-luxCDABE reporter (pMQ747)
Experiment: PosmB-lux reporter fold induction (RLU/OD600 relative to no-compound control), highest over Biolog concentrations; higher = stronger Rcs reporter activation
Details: Biolog plate: PM18; well positions: D5-8; wild type K904; 4 h
Procedure: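 Serratia marcescens K904 (wild type) or its isogenic ΔrcsB mutant, carrying the Rcs-dependent PosmB-luxCDABE reporter plasmid pMQ747, was grown in LB at OD600 0.1 in Biolog Phenotype MicroArray plates PM11-20 for 4 h at 30-32°C. Each compound is present at 3-4 proprietary concentrations (not stated); per the Fig. S1 legend the value given is the highest fold over those wells. Three independent trials.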

Row | SMILES | PosmB-lux reporter fold induction
1 | [O-][Br+2]([O-])O [sodium bromate] | 1.23 ± 0.28
